The entries are a selection whose mix differs from that of the whole data set. Active and inactive are the calls of the source. Calls follow the shape of the dose curve; as a rule, active = well fitted activation curve with a large enough effect; inconclusive = small, poorly fitted or top-dose-only effect; inactive = no such curve, though single readings can be large or run the other way.

The experiment can be described thus: qHTS Assay to Identify Small Molecule Activators of BRCA1 Expression. Also: nearly all actives have a fitted effect of over 80% in size. The conditions noted are these: MCF7-BRCA1-FFLuc reporter, luminescence, 48 h, scaled: vehicle 0%, 10 µM genistein 100%; at 46.1 µM (top of the series). For orientation: In qHTS, concentration-response curves come from the screen itself.
For `c1nnnn1CCn1cnnn1`, the activation is inactive: 16.3%.

Regarding `NC(=O)Nc1ccc([As](=O)(O)O)cc1`, the activation was inactive: 3.43%.

The record behind these values is PubChem BioAssay AID624202 (National Center for Advancing Translational Sciences (NCATS), 2012).
